## AlphaSeq binding of Ab-14 light chain variants to a spike HR2 peptide

From the AlphaSeq antibody data of Engelhart et al. 2022 (doi:10.1038/s41597-022-01779-4), copy in the FLAb collection.

All variants were tested on one target, the spike HR2 peptide PDVDLGDISGINAS (SARS-CoV-2).

The variants keep the heavy chain, the linker and the frameworks of Ab-14 (scFv order VH, a 15-residue (Gly4Ser)3 linker, VL).
VH: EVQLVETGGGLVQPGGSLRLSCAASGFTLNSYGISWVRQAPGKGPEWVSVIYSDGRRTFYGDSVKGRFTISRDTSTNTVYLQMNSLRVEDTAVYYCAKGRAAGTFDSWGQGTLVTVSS
VL: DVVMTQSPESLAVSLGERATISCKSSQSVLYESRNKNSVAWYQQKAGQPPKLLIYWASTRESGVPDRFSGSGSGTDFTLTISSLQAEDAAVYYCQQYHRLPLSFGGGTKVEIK

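The parent was found by panning a naive human phage display library on the peptide. Library AAYL50 holds single substitutions and randomly drawn double and triple substitutions in the CDRs. The assay is AlphaSeq: two haploid yeast populations carry antibody and antigen on their surface. The frequency of each diploid, read from paired DNA barcodes, reflects how well the two displayed proteins bind. The ratio of observed to expected reads was calibrated, replicate by replicate, on BCL2-family standards whose Kd was known from biolayer interferometry. There are three technical replicates.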

Variants are written as CDR1, CDR2 and CDR3 of the light chain (limits as in the source). Parent: KSSQSVLYESRNKNSVA, WASTRES, QQYHRLPLS.
This list gathers variants with a substitution at R60 (VL, numbered from residue 1).
Numbers give log10(Kd / nM), so 0 is 1 nM and 3 is 1 µM. Smaller is tighter.
Averages over replicates are reported, and they cover detected replicates only.
An entry "nd" has no value in the source: the pair was not observed among the diploids in any replicate. This suggests poor binding but is not conclusive.
Empty control strains, which show no peptide, gave a signal in 18% of pairings with library AAYL50; the median was 4.19 and 95% of these signals were weaker than 2.99. No background was subtracted.
In this assay the parent's reference entry averaged 0.65; its copy inside this library read 1.68.

CDR-L1	CDR-L2	CDR-L3	mean, log10 nM	detected
KSSQMVLYESRNKNSVA	WASTFRS	QQYHRLPLS	2.43	1 of 3
KSSQSVLYESRNKNSVA	WAKTKEH	QQYHRLPLS	nd	0 of 3
KSLQSVLYESRNKNSKA	WASTNES	QQYHRLPLS	nd	0 of 3
KSSQFVLYESRNKNNVA	WASTDES	QQYHRLPLS	nd	0 of 3
KSSHSQLYESRNKNSVA	WASTTES	QQYHRLPLS	nd	0 of 3
KSSQSVLYESRNKNMVA	WASTLES	QQYHRLQLS	5.22	1 of 3
KSSQSVLYESRNKNSVA	WASTAES	LQYHRLPLI	nd	0 of 3
KSSQAVLYESKNKNSVA	WASTIES	QQYHRLPLS	nd	0 of 3
KSSQSVLYESRNKNSVA	WATTGES	WQYHRLPLS	nd	0 of 3
KSSQSVLYESRNYNSVA	WASTYES	QEYHRLPLS	nd	0 of 3
KSKQSVLYESRNTNSVA	WASTAES	QQYHRLPLS	nd	0 of 3
KSSQSVLYESRNKNSVA	WAWTLES	QQYHRLPLS	3.51	3 of 3
KSSQSVLYESRNKKSVA	WASTHES	QQLHRLPLS	nd	0 of 3
KSSQSVLYESRNKNSVA	WASTTES	QQYHRLPLS	2.12	3 of 3
KSSQSVLYESRNKNSVA	WASVTDS	QQYHRLPLS	4.52	1 of 3
KSSRSVLYESRNKNSVA	WASTHES	QQTHRLPLS	3.42	2 of 3
KSSQSVLYESRNKNSVA	WASTPYS	QQYHRLCLS	3.43	1 of 3
KSSQSVLYESRNWNIVA	WASTYES	QQYHRLPLS	nd	0 of 3
KSSQSVSYESRNKNSVA	WASTLES	QQYHRLPLS	1.59	3 of 3
KSSQMVLYESRNKNSVA	WLSTLES	QQYHRLPLS	5.77	1 of 3
KSSQSVLYKSKNKNSVA	WASTPES	QQYHRLPLS	2.60	2 of 3
KSSQSVLYSSRNKNSVA	WASTCER	QQYHRLPLS	5.02	1 of 3
KSSQSVLTESTNKNSVA	WASTNES	QQYHRLPLS	3.66	1 of 3
KSSQSVLYEGRNKNSVA	WASTHEG	QQYHRLPLS	2.82	3 of 3
KSSQSVLYESRNKNSVA	WASTCES	QQYHRLPLS	3.53	3 of 3
KSSQSVLTYSRNKNSVA	WASTEES	QQYHRLPLS	2.45	3 of 3
KSSQSVLYESRNKNSVA	LASTGES	QSYHRLPLS	nd	0 of 3
KSSQSVLLESRNKNWVA	WASTWES	QQYHRLPLS	nd	0 of 3
KSSQSVLYESRNKISVA	WASTAES	QQYPRLPLS	nd	0 of 3
LSSQSHLYESRNKNSVA	WASTIES	QQYHRLPLS	5.45	2 of 3
KSSQSVLYESRNKNSVA	WATTYES	QQYSRLPLS	nd	0 of 3
KSSQSVLHESRNKNSVA	WASTQES	QQYTRLPLS	3.08	2 of 3
KSSQSVLYESRNKNSTA	WASTNES	QQYHRLGLS	6.38	1 of 3
KSSQSVLYESRNKNSVA	WASTSES	QQYRRVPLS	3.74	1 of 3
KSSQSDLYESRNKNSVA	WASTHES	QQYHRTPLS	nd	0 of 3
KSSASVLYESRNKNSVA	WASTMYS	QQYHRLPLS	3.90	2 of 3
KSSQSVLFWSRNKNSVA	WASTNES	QQYHRLPLS	2.68	1 of 3
KSSQSVLYESRRKNSVA	WASTFES	QQEHRLPLS	nd	0 of 3
KSSQSLLYESRNKNSVA	WASTEES	QQHHRLPLS	nd	0 of 3
KSSQSVLYESRNKKSVA	WASTTES	QQYHRIPLS	nd	0 of 3
KSSQSVLWESRNKNSVA	WASTQEA	QQYHRLPLS	2.55	3 of 3
KSSNSVLYESRNKNSVA	WASTNES	PQYHRLPLS	nd	0 of 3
KSSQSVLYESRNKNSVA	WASTIEG	TQYHRLPLS	4.42	1 of 3
KSSQSVLYESRMKNSVA	WASTKES	QQYHRLPLW	1.55	3 of 3
KSSQSVNYESRNKNSVA	WASTMES	QQYHRLPSS	3.56	1 of 3
KSSQSVLYESRNKNSVA	WASTTSS	FQYHRLPLS	2.68	3 of 3
KSSQSVLYESRWKNSVA	WASTPES	QQYFRLPLS	nd	0 of 3
KSSQSVLYESRNTNSVA	WASTSES	QQYHRGPLS	4.65	2 of 3
KSSQSVLYEIRNKNSVA	WASTAES	QAYHRLPLS	nd	0 of 3
WSSQSVLYESRNKNSVA	WASTGES	QQYHRRPLS	nd	0 of 3
KSSQSVLYESRNYNSVD	WASTDES	QQYHRLPLS	4.78	3 of 3
KSSQSVRYEIRNKNSVA	WASTHES	QQYHRLPLS	3.29	3 of 3
KSSQSVLYESRNKNSTA	WASTLES	QQYHRLNLS	nd	0 of 3
KSSQSVLYECRNKNSVA	WASTIES	QQYHRLNLS	nd	0 of 3
TSSQSVAYESRNKNSVA	WASTWES	QQYHRLPLS	nd	0 of 3
KSSQEVLYESRNKNSQA	WASTIES	QQYHRLPLS	nd	0 of 3
KSSISVRYESRNKNSVA	WASTLES	QQYHRLPLS	2.30	3 of 3
KSSNSVLYESRNKNSVA	WASTCES	QQYHRLPLS	3.57	3 of 3
KSSQSVCYESRNKNSCA	WASTPES	QQYHRLPLS	nd	0 of 3
KSSQSVLYESRNKISVA	WASPIES	QQYHRLPLS	4.18	2 of 3
KSSQSVLYESRNKNSVA	WASGCES	QQYHRSPLS	nd	0 of 3
HSSQSVLYESRNKNSVA	WAMTIES	QQYHRLPLS	2.83	1 of 3
KSSQSVLYESRNKNSVA	WASTMES	QQYHRLPGL	4.05	1 of 3
KSSQSVLYESANKNSVA	WASTDES	QQYHRLPLS	nd	0 of 3
KSSQSVLYESRNKNSDA	WASTSES	LQYHRLPLS	nd	0 of 3
KSSQSVLYESRNKNSVA	WKSTKES	QQYHRLPCS	nd	0 of 3
KSSQSVLYESRNKNSVA	WASIQEH	QQYHRLPLS	nd	0 of 3
KSSQQVYYESRNKNSVA	WASTSES	QQYHRLPLS	3.39	1 of 3
HSSQSVLYESRNKNSVY	WASTLES	QQYHRLPLS	3.85	1 of 3
KSSQSVLYESRNDNSVA	WASWWES	QQYHRLPLS	nd	0 of 3
KSSQSVLYESRNKNSMA	WASTCES	QQYNRLPLS	nd	0 of 3
KASQSVLYWSRNKNSVA	WASTMES	QQYHRLPLS	3.50	3 of 3
ASSQSVLYESRNENSVA	WASTLES	QQYHRLPLS	2.05	3 of 3
KSSQSVLYESRNKNSVA	WASTWES	QQNHRDPLS	nd	0 of 3
KSSRSVLYESRNKNSVA	WASTAES	QQYHRLPLS	2.93	3 of 3
KSSQSVLQEIRNKNSVA	WASTIES	QQYHRLPLS	2.45	3 of 3

The first 5 entries again:

{"CDR-L1": "KSSQMVLYESRNKNSVA", "CDR-L2": "WASTFRS", "CDR-L3": "QQYHRLPLS", "mean, log10 nM": "2.43", "detected": "1 of 3"}
{"CDR-L1": "KSSQSVLYESRNKNSVA", "CDR-L2": "WAKTKEH", "CDR-L3": "QQYHRLPLS", "mean, log10 nM": "nd", "detected": "0 of 3"}
{"CDR-L1": "KSLQSVLYESRNKNSKA", "CDR-L2": "WASTNES", "CDR-L3": "QQYHRLPLS", "mean, log10 nM": "nd", "detected": "0 of 3"}
{"CDR-L1": "KSSQFVLYESRNKNNVA", "CDR-L2": "WASTDES", "CDR-L3": "QQYHRLPLS", "mean, log10 nM": "nd", "detected": "0 of 3"}
{"CDR-L1": "KSSHSQLYESRNKNSVA", "CDR-L2": "WASTTES", "CDR-L3": "QQYHRLPLS", "mean, log10 nM": "nd", "detected": "0 of 3"}